Binding of CDR-mutated scFvs to a peptide of the spike HR2 region

Source: Li et al. 2023 (doi:10.1038/s41467-023-39022-2), MIT Lincoln Laboratory and A-Alpha Bio; data file from the FLAb repository.

Antigen: PDVDLGDISGINAS, a 14-residue peptide of the SARS-CoV-2 spike HR2 region.

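The starting antibody came from a phage panning campaign against this peptide. These sequences belong to a second round, designed from the earlier measurements on random variants of the parent. Group labels follow the data file (Ctrl: baseline library sampled from a position-specific scoring matrix, with some repeated check sequences; Rand: our label for a block that the file lists under HC and that is probably the random mutants of the ten best first-round binders; GP: Gaussian process model; HC: hill climbing; Gen: genetic algorithm; Gibbs: Gibbs sampling; a sequence that several methods proposed may carry one label only). The scFvs were displayed on barcoded MATa yeast, the peptide on MATalpha yeast. Binding brings cells together so that they mate, and sequencing counts the barcode pairs among the diploids. Read counts were normalised to the haploid input and turned into Kd by a linear fit to BCL2-family pairs of known affinity, for each replicate. The assay was run in six technical replicates.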

Parent: Ab-14, a human scFv built as VH, three GGGGS repeats, VL. Only the CDRs of the light chain vary.
VH: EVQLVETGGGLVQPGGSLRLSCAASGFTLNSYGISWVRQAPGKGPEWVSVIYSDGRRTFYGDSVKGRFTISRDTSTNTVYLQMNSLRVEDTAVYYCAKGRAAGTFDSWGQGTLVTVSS
VL: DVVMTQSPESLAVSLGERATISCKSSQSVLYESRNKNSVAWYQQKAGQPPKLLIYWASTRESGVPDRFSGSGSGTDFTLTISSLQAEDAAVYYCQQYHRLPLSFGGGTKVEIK

The parent's light chain CDRs are KSSQSVLYESRNKNSVA, WASTRES, QQYHRLPLS; each variant's own CDRs replace them letter for letter.
Variants here have at most six changes.
Numbers give log10(Kd / nM), so 0 is 1 nM and 3 is 1 µM. Smaller is tighter.
The mean shown is taken over the replicates in which the pair was detected.
A pair that was not seen in that replicate is written "ND"; this usually means weak binding, but a binder can also be missed.
Order: sorted from the lowest average up.
The parent sequence was in this pool as ten entries: three were never detected, three once, and four in most replicates, with averages from 0.34 to 2.37.

- KISQSYLYESRNKNSVA | NASQRES | QQYHRLPLS [GP_Gen]: -0.75, -0.84, -0.93, -0.93, -0.75, -0.59 (mean -0.80)
- KLSQSVWYESRNKNSVA | QASTRES | QQYHRLPLS [GP_Gen]: -0.28, -0.42, -0.58, -0.44, -0.49, -0.29 (mean -0.42)
- KLSQSVLYESRNKNAVA | EASQRES | QQYHRLPLS [GP_Gen]: -0.23, -0.38, -0.38, -0.51, -0.34, -0.46 (mean -0.38)
- KFSQSWLYEDRVKNSVA | GASTRES | QQYHRLPLS [GP_HC]: -0.36, -0.42, -0.25, -0.58, -0.33, -0.10 (mean -0.34)
- HLSDSVLYESRNKNSVA | NASTRES | QQYHRLPLQ [GP_HC]: -0.19, -0.07, -0.58, -0.48, -0.26, -0.03 (mean -0.27)
- HLSWDVLYESRNKNSVA | NASTRES | QQYHRLPLS [GP_HC]: -0.14, -0.29, -0.35, -0.26, -0.36, -0.13 (mean -0.25)
- KVSPSELYESRNKNSVA | DASTRES | QQYHRLPLS [GP_Gen]: -0.22, -0.11, -0.16, -0.25, -0.37, -0.29 (mean -0.23)
- KLSISQLYESRNKNSVA | NASTRES | QQYHRLPLS [GP_Gen]: -0.15, -0.26, -0.13, -0.33, -0.03, -0.19 (mean -0.18)
- KLSQSVLYESRNFNSVA | NASTRES | QQYHRLPLS [GP_Gen]: 0.09, -0.14, -0.20, -0.30, -0.13, 0.06 (mean -0.11)
- KFSQSYLYESRNKNSVA | NASTRES | QQYHRLPLM [GP_Gen]: -0.02, -0.15, -0.09, -0.10, -0.22, 0.03 (mean -0.09)
- KLSQSDGYESRNKNSVA | HASTRES | QQYHRLPLS [GP_Gen]: 0.17, -0.10, -0.07, -0.34, -0.04, 0.10 (mean -0.04)
- KVSQSVLYESGTKNSVA | NASQRES | QQYHRLPLS [GP_HC]: 0.13, -0.05, -0.13, -0.04, 0.06, 0.03 (mean 0.00)
- KMSQSWLYESRNKNSVA | DASQRES | QQYHRLPLS [GP_Gen]: 0.04, 0.40, -0.17, -0.01, -0.12, 0.13 (mean 0.04)
- KSSTSYLEESRNKNSVA | EASTRES | QQYHRLPLS [GP_HC]: 0.17, 0.07, -0.01, -0.07, -0.06, 0.19 (mean 0.05)
- KWEQSVMGESRNKNSVA | NASTRES | QQYHRLPLS [GP_Gibbs]: 0.18, -0.04, 0.25, 0.25, -0.18, 0.04 (mean 0.08)
- KLQQSSLYESRNKNSVA | NASTRLS | QQYHRLPLS [GP_Gen]: 0.50, 0.04, 0.13, 0.16, 0.13, 0.15 (mean 0.18)
- KFSQSVLYESRASNSVA | NASTRES | QQYHRLPLS [GP_HC]: 0.33, 0.48, 0.14, -0.02, 0.03, 0.32 (mean 0.21)
- KSSPSYPEESRNKNSVA | EASTRES | QQYHRLPLS [GP_HC]: 0.77, 0.21, 0.00, 0.22, 0.35, 0.28 (mean 0.30)
- KVLQSVLYESRNKNSVA | HASTRED | QQYGRLPLS [GP_HC]: 0.45, 0.48, 0.22, 0.23, 0.25, 0.50 (mean 0.35)
- KFSPSVYYESRTKNSVA | DASTRES | QQYHRLPLS [GP_HC]: 0.56, 0.47, 0.35, 0.19, 0.65, 0.45 (mean 0.44)
- KSSQSVLQESRNFNSVA | DASTRES | QQYHRLPLS [GP_HC]: 0.49, 1.17, -0.08, 0.55, 0.13, 0.71 (mean 0.49)
- KSLQGVLYESRDKNSVA | HASTRED | QQYHRLPLS [GP_HC]: 0.69, 0.60, 0.25, 0.61, 0.68, 0.54 (mean 0.56)
- KLQQSVLYESRNKNNVA | HASTRES | QQYHRLPLS [GP_Gen]: 0.73, 0.77, 0.56, 0.27, 0.44, 0.61 (mean 0.56)
- KLRQSTLYEVRNPNSVA | WASTRES | QQYHRLPLS [Rand]: ND, 0.82, 0.54, 0.39, 0.69, 0.55 (mean 0.60)
- KSSQSVWMESRNANSVA | DASTRES | QQYHRLPLS [GP_HC]: 0.81, 0.79, 0.36, 0.55, 0.50, 0.75 (mean 0.63)
- KSSQSVLYESSNKNSVA | KASTREP | QQYHRLPLS [Ctrl]: 1.17, 0.81, 0.64, 0.68, 0.31, 0.99 (mean 0.76)
- KLRQSTLYESRNKNSVA | MASTRES | QQYHRLPLS [GP_HC]: 0.91, 0.63, 0.67, 0.86, 1.06, 0.89 (mean 0.84)
- KVSQSVLYESRNKNSVA | WASTRES | QQYHRLPLK [Ctrl]: 1.17, 0.76, 0.59, 1.06, 0.97, 1.20 (mean 0.96)
- KSSQSVLYESRNKNSVA | TASTRVS | QQYHRLPLS [Ctrl]: 1.15, 2.42, 0.64, 1.38, 0.66, 0.37 (mean 1.11)
- KLSQSVLYESRTKNSVA | NASTRES | QQYHQLPLS [GP_HC]: 1.53, 0.81, 0.93, 0.59, 1.42, 1.57 (mean 1.14)
- DSSQSVLYESRNKNSVA | WASTRES | QQYHRLPLS [Ctrl]: 1.68, 1.21, 1.39, 1.67, 1.60, 1.18 (mean 1.45)
- KSSQSVPYESENANSVA | WASTRES | QQYHRLELP [Ctrl]: ND, 1.83, ND, ND, ND, ND
- KLSQSVLYEQRNKYQVA | WASTRWS | QQYHRLPLS [Ctrl]: ND, ND, 2.15, ND, ND, ND
- KSSQSVLYESRNKNQCA | NASTRES | QQYHRLPLS [Ctrl]: 1.70, 2.60, 1.62, ND, 3.22, 2.48 (mean 2.32)
- KSRQSVLYESRNKNSVA | WASTRES | QQYHRLPLS [Ctrl]: ND, 1.75, 2.90, ND, 2.40, 2.42 (mean 2.37)
- KSSQSVFYESRNKNSVA | WASTRES | QQYHRLPLF [Ctrl]: ND, ND, 2.00, 2.47, 3.35, 3.11 (mean 2.74)
- KSSQSWLYESRNKNSTA | GASTSES | QQYHRLPLS [Rand]: 2.28, 4.75, 3.38, ND, ND, 2.78 (mean 3.30)
- KSSQSVLIEIRNKNSVA | NASKRES | QQYHRLPLS [Ctrl]: ND, ND, ND, ND, ND, 3.84

The authors averaged sequences with at least three values out of six and counted those with two or fewer as poor binders.
Three control strains display no target. For all light chain designs, 4% of the pairings with them gave a signal, with a median of 2.64 and one signal in twenty below 1.59, so weak values seen in few replicates may be background.
A sequence measured in both rounds can read differently, since the two assays cover different ranges.